Experiments:
Assay in all cases: co-IP; anti-Flag M2 affinity gel on extracts of human HEK 293 cells transfected with mouse 3xFlag Cyclin A2 alleles; endogenous partners detected by Western blot; densitometry (ImageQuantTL) normalised to immunoprecipitated Cyclin A2, percent of WT; repeated 3 times
[1] = target: Cyclin A2 D171A, C-terminally fused to 3 Flag tags (mouse) (UniProt P51943)
[2] = target: Cyclin A2 L204A, C-terminally fused to 3 Flag tags (mouse) (UniProt P51943)
[3] = target: Cyclin A2 M200A, C-terminally fused to 3 Flag tags (mouse) (UniProt P51943)
[4] = target: Cyclin A2 W207A, C-terminally fused to 3 Flag tags (mouse) (UniProt P51943)
[5] = target: Cyclin A2 WT, C-terminally fused to 3 Flag tags (mouse) (UniProt P51943)

percent co-precipitated relative to WT [1]: 96%
percent co-precipitated relative to WT [2]: 12.6%
percent co-precipitated relative to WT [3]: 100%
percent co-precipitated relative to WT [4]: 5%
percent co-precipitated relative to WT [5]: 100%
Substance: CDK2 (endogenous, HEK 293) (from UniProt P24941 1-298) (enzyme)
